Test system: patients with nociceptive or neuropathic pain
Assay: Patient examples 1-5: oral AV1066, patient-reported pain control
Type: in vivo, human
Protocol: A patient or subject (the terms are used interchangeably) presents with a fractured collar bone arising from a bicycling accident. They are complaining of significant shoulder pain. The patient's pain is classified according to the
International Association for the Study of Pain as nociceptive. They are orally administered AV1066 5 mg/kg/day. They are examined at days 3, 7, 16, and 28. At each visit the patient is assessed for pain control compared with the previous visit. The patient reports the pain to be both tolerable and improved at each visit.
A patient presents with a second […]. They are complaining of significant pain. The patient's pain is classified according to the International Association for the Study of Pain as nociceptive. They are orally administered the phosphate salt of AV1066 10 mg/kg daily in two doses. They are examined at 12 hours, and daily thereafter for 4 days. At each visit the patient is assessed for pain control compared with the previous visit. The patient reports the pain to be both tolerable and improved at each visit.
A patient presents with a benign tumor mass compressing their left shoulder causing movement pain. The patient's pain is classified according to the International Association for the Study of Pain as nociceptive. […] At each visit the patient is assessed for pain control compared with the previous visit. […]

| Substance | patient-reported pain control (Example 4, postherpetic neuralgia (neuropathic), oral 10 mg/kg daily on days of significant pain) | patient-reported pain control (Example 5, trigeminal neuralgia, oral 350 mg, one to three doses in 12 hours) |
| --- | --- | --- |
| (+) 1-(3-4(((1R,3S,5S)-adamantan-1-yl)(phenyl)methyl)propyl)-4-methylpiperazine | pain reduced and the outbreaks lessened din severity and duration | – |
| (−) 1-(3-4(((1R,3S,5S)-adamantan-1-yl)(phenyl)methyl)propyl)-4-methylpiperazine | – | one or two doses significantly reduce the frequency and severity of pain |
